This experiment addresses Norepinephrine transporter (Rattus norvegicus, UniProt Q9JIA2).

pKi: −log10 of the molar value.

`COc1ccc(C(CN(C)C)C2(O)CCCCC2)cc1` (stereo unspecified) [NSC_62923] had a pKi of 8.90.

The term pKi denotes the negative decadic logarithm of the Ki, by convention in mol/L. Higher therefore signals a small Ki.
